{
  "source": "paper PMC4641155",
  "about": "“Characterization of [^99mTc]Duramycin as a SPECT Imaging Agent for Early Assessment of Tumor Apoptosis” (Molecular Imaging and Biology, 2015)",
  "origin": "cited, not measured here",
  "settings": "read-out: Kd for binding to PE; cited from earlier work",
  "procedure": "Duramycin is a 19-amino acid peptide that recognizes both apoptotic and necrotic cells by binding to PE with high affinity (Kd ∼ 5 nM) and specificity. The low molecular weight (MW) of duramycin (∼2 kDa) confers this tracer with favorable pharmacokinetics and biodistribution properties for in vivo imaging of apoptosis. [^99mTc]Duramycin has been successfully used as a probe for the imaging of cell death in animal models of cerebral and myocardial ischemia–reperfusion, accumulating in tissue sites of injury where there is high apoptotic activity. Additionally, ...",
  "data": [
    {"substance": "Duramycin", "values": [
      {"measurement": "Kd", "result": "~5", "unit": "nM"}
    ]}
  ]
}
